# Results: patent publication EP4831169A1, “NOVEL COMPOUND USED AS CBP/P300 INHIBITOR, AND PHARMACEUTICAL COMPOSITION FOR PREVENTING OR TREATING CANCER, INFLAMMATORY DISORDERS, OR AUTOIMMUNE DISEASES COMPRISING SAME AS ACTIVE INGREDIENT” (dated 2026)
# Sequences of proteins named here, by UniProt entry; tags and fusion partners are left off. Residues count along the entry.
# UniProt Q92793, 1085-1192 limits assumed: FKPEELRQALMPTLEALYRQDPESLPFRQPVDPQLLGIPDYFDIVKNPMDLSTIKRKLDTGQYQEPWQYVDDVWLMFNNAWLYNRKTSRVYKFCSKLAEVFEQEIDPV
# Key:
# CBP BRD protein = CBP BRD protein (Homo sapiens, UniProt Q92793); experiment: CBP bromodomain TR-FRET inhibitory activity assay; conditions: read-out: CBP BRD IC50, Table 3
# BRD4 (BD1) protein = BRD4 (BD1) protein (Homo sapiens, UniProt O60885); experiment: BRD4 bromodomain TR-FRET inhibitory activity assay; conditions: read-out: BRD4 (BD1) IC50, Table 4
SMILES,IC50 (CBP BRD protein),IC50 (BRD4 (BD1) protein)
Cn1cc(-c2cc3nc(-c4cncn4C)n(-c4cc(N5CCOCC5)c5c(c4)n(C)c(=O)n5C)c3cc2C(F)F)cn1,< 500 nM,> 5000 nM
CC(C)Nc1cc(-n2c(-c3cncn3C)nc3cc(-c4cnn(C)c4)c(C(F)F)cc32)cc2c1n(C)c(=O)n2C,< 500 nM,> 5000 nM
COc1ccccc1-c1nc2cc(-c3cnn(C)c3)c(C(F)F)cc2n1-c1cc(N2CC(C)(O)C2)c2c(c1)n(C)c(=O)n2C,< 500 nM,> 5000 nM
Cn1cc(-c2cc3nc(C(C)(C)C)n(-c4cc(NCC(C)(O)CO)c5c(c4)n(C)c(=O)n5C)c3cc2N)cn1 (stereo not drawn),< 500 nM,> 5000 nM
Cn1cc(-c2cc3nc(C(C)(C)C)n(-c4cc(N5CCOCC5)c5c(c4)n(C)c(=O)n5C)c3cc2/C=N/O)cn1,< 500 nM,> 5000 nM
CC(C)Nc1cc(-n2c(C(C)(C)C#N)nc3cc(-c4ccc5c(c4)OCC(=O)N5)c(F)cc32)cc2c1n(C)c(=O)n2C,< 500 nM,> 5000 nM
Cn1cc(-c2cc3nc(-c4cncn4C)n(-c4cc(N5CC(C)(O)C5)c5c(c4)n(C)c(=O)n5C)c3cc2C(F)F)cn1,< 500 nM,500 to 5000 nM
C#CC(C)(C)c1nc2cc(-c3cnn(C)c3)c(C#N)cc2n1-c1cc(OC(C)C)c2c(c1)n(C)c(=O)n2C,< 500 nM,> 5000 nM
"Cn1cc(-c2cc3nc(C(C)(C)C)n(-c4cc(C5CCC(C)(O)CC5)c5c(c4)n(C)c(=O)n5C)c3cc2C(F)F)cn1 (single isomer, unassigned)",< 500 nM,> 5000 nM
CC(C)Oc1cc(-n2c(-c3cncn3C)nc3cc(-c4cnn(C)c4)c(C(F)(F)F)cc32)cc2c1n(C)c(=O)n2C,< 500 nM,> 5000 nM
C[C@H]1CN(c2cc(-n3c(-c4cncn4C)nc4cc(-c5cnn(C)c5)c(F)cc43)cc3c2n(C)c(=O)n3C)CCO1,< 500 nM,> 5000 nM
Cn1cc(-c2cc3nc(-c4cncn4C)n(-c4cc(Nc5ccccc5)c5c(c4)n(C)c(=O)n5C)c3cc2F)cn1,500 to 5000 nM,> 5000 nM
CNC(=O)c1ccc(-c2cc3nc(-c4cncn4C)n(-c4cc(C5CCOCC5)c5c(c4)n(C)c(=O)n5C)c3cc2F)cc1F,< 500 nM,> 5000 nM
Cn1cc(-c2cc3nc(-c4cncn4C)n(-c4cc(-c5ccncc5)c5c(c4)n(C)c(=O)n5C)c3cc2F)cn1,< 500 nM,> 5000 nM
Cn1cncc1-c1nc2cc(-c3ccc4c(c3)OCC(=O)N4)c(F)cc2n1-c1cc(C2CCOCC2)c2c(c1)n(C)c(=O)n2C,< 500 nM,500 to 5000 nM
CNC(=O)c1ccc(-c2cc3nc(C(C)(C)C)n(-c4cc(N5CC(C)(O)C5)c5c(c4)n(C)c(=O)n5C)c3cc2C(F)F)cc1F,< 500 nM,> 5000 nM
CC(=O)c1cc(-n2c(-c3cncn3C)nc3cc(-c4cnn(C)c4)c(F)cc32)cc2c1n(C)c(=O)n2C,500 to 5000 nM,> 5000 nM
Cn1cc(-c2cc3nc(C(C)(C)C)n(-c4cc(N5CC(C)(O)C5)c5c(c4)n(C)c(=O)n5C)c3cc2C#N)cn1,< 500 nM,> 5000 nM
COC1CN(c2cc(-n3c(-c4cncn4C)nc4cc(-c5cnn(C)c5)c(F)cc43)cc3c2n(C)c(=O)n3C)C1,< 500 nM,500 to 5000 nM
Cn1cc(-c2cc3nc(-c4cncn4C)n(-c4cc(NCC5CCC5)c5c(c4)n(C)c(=O)n5C)c3cc2F)cn1,< 500 nM,> 5000 nM
C[C@H]1COCCN1c1cc(-n2c(C(C)(C)C)nc3cc(-c4cnn(C)c4)c(F)cc32)cc2c1n(C)c(=O)n2C,< 500 nM,> 5000 nM
COC1(C)CN(c2cc(-n3c(C(C)(C)C)nc4cc(-c5cnn(C)c5)c(C(F)(F)F)cc43)cc3c2n(C)c(=O)n3C)C1,< 500 nM,> 5000 nM
Cn1cc(-c2cc3nc(-c4cncn4C)n(-c4cc(OC5CCOCC5)c5c(c4)n(C)c(=O)n5C)c3cc2F)cn1,< 500 nM,> 5000 nM
Cn1cc(-c2cc3nc(C(C)(C)C)n(-c4cc(N5CCOCC5)c5c(c4)n(C)c(=O)n5C)c3cc2CO)cn1,< 500 nM,> 5000 nM
Cn1cc(-c2cc3nc(-c4cncn4C)n(-c4cc(C5=CCN(C(=O)OC(C)(C)C)CC5)c5c(c4)n(C)c(=O)n5C)c3cc2F)cn1,< 500 nM,> 5000 nM
CCCNc1cc(-n2c(-c3cncn3C)nc3cc(-c4ccc(NC(C)=O)cc4)c(F)cc32)cc2c1n(C)c(=O)n2C,< 500 nM,> 5000 nM
CC(=O)Nc1ccc(-c2cc3nc(-c4cncn4C)n(-c4cc(NC5CC5)c5c(c4)n(C)c(=O)n5C)c3cc2F)cc1,< 500 nM,> 5000 nM
CC(C)Nc1cc(-n2c(C(C)(C)C#N)nc3cc(-c4cnn(C)c4)c(F)cc32)cc2c1n(C)c(=O)n2C,< 500 nM,> 5000 nM
Cn1cc(-c2cc3nc(-c4cncn4C)n(-c4cc(N5CCOCC5)c5c(c4)n(C)c(=O)n5C)c3cc2C#N)cn1,< 500 nM,> 5000 nM
CN(C)C(=O)c1cc2nc(C(C)(C)C)n(-c3cc(N4CCOCC4)c4c(c3)n(C)c(=O)n4C)c2cc1F,500 to 5000 nM,> 5000 nM
